Test results taken from patent US4137380A, “Polyester granules and process” (priority 1972, dated 1979).

Test: Relative water solubility of amine
Details: amine base

Nc1ccccc1N [o-phenylene diamine]
Rel. W. Sol: insoluble
